# Assay results from patent US20130123460A1, “PEPTIDE FOR IMPROVING BIOSTABILITY OF BIOACTIVE SUBSTANCE, AND BIOACTIVE SUBSTANCE HAVING IMPROVED BIOSTABILITY” (priority 2010, published 2013).
# Key:
# [1] = target: T1, endogenous GLP-1 receptor (Mus musculus, UniProt O35659); test: Insulin secretion capacity of GLP-1 peptide complex in MIN 6 cells; type: cell-based; settings: read-out: EC50 value (nM), insulin secretion capacity, 15 mM glucose, concentration for 50% of maximum activity of native GLP-1 at 1000 pM;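 further: insulin released into the supernatant of MIN 6 cultures quantified by ELISA, absorbance read at 450 nm with 620 nm reference after substrate addition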
# T1 construct: expressing an endogenous GLP-1 receptor; endogenous in cells; host or cells: MIN 6 mouse insulinoma cells (obtained from a person)
# T1 sequence (O35659 22-463): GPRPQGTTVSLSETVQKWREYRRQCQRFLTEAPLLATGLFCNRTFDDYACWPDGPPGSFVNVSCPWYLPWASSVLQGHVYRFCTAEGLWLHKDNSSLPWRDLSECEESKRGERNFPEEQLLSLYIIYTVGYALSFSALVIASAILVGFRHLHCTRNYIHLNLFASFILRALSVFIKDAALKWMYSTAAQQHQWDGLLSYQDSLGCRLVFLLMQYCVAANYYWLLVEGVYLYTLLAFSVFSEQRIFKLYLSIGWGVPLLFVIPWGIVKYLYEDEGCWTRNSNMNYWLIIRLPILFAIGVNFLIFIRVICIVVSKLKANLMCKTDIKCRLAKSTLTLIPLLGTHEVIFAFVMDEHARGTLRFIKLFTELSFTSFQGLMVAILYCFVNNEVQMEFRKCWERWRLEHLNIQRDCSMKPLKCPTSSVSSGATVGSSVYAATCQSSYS
# [2] = Plasma stability of GLP-1 peptide complex (remaining rate in rat plasma, HPLC/MS); type: in vitro ADME, SD rats; settings: 0.5 μmol/L, 37° C., relative to 0 hour = 100%
Substance,EC50 [1],Remaining rate in plasma after 8 hours (%) [2],Remaining rate in plasma after 48 hours (%) [2],Remaining rate in plasma after 48 hours (%) ([2]; 2880 min)
[Ser8]-GLP-1(7-35)-GAm(38-42)-NH2 [Example 1],0.5 nM,96%,71%,
[Ser8]-GLP-1(7-35)-GAm(32-44)-NH2 [Example 10],,96%,68%,
[Ser8]-GLP-1(7-35)-GAm(28-44)-NH2 [Example 14],,107%,116%,
"GLP-1(7-36)-NH2 [Comparative Example 1, reference compound]",,0%,completely decomposed,0%
"[Ser8]-GLP-1(7-36)-NH2 [Comparative Example 2, reference compound]",,17%,completely decomposed,0%
[Ser8]-GLP-1(7-35)-GAm(38-44)-NH2 [Example 2],,97%,95%,
